Reference: patent US20230192683A1, “FUSED RING COMPOUNDS, PREPARATION METHOD THEREFOR, PHARMACEUTICAL COMPOSITIONS AND USE THEREOF” (priority 2020, published 2023)

By UniProt entry, the sequences of proteins in these tests, tags left out. Where a name states a change or a piece, a line headed by the entry shows the natural chain unless it says otherwise.
UniProt P31391: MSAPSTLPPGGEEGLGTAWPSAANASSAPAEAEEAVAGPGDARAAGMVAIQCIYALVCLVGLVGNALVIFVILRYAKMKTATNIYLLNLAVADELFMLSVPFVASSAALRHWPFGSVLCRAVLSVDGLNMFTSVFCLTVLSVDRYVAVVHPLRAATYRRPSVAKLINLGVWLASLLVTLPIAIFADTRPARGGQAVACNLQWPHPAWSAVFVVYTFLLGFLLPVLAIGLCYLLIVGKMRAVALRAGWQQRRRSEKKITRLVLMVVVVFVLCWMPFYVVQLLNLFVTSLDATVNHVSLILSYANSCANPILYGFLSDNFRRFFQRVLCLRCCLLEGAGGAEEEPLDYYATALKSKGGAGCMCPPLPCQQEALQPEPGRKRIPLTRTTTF

Target: T1, human SSTR4 (Homo sapiens, UniProt P31391)
T1 construct: expressed in transfected cells
Assay: radioligand binding assay, [125I]Somatostatin-14, CHO-K1 membranes
Procedure: Cell membranes were then filtered and washed, and protein-bound radioactivity was measured with a suitable instrument. The Ki values of corresponding targets were calculated using a Cheng-Prusoff formula.

Structure (SMILES): Cc1cccc2c(C(C)(C)NC(=O)[C@H]3[C@@H]4CNC[C@@H]43)nn(C)c12 [Control Compound A, reference compound]
- Ki: 1.41 nM
